From PubChem BioAssay (NCI)
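Compound exposure: 48 hours, 5 concentrations, 96-well plates. GI50 = concentration required for 50% inhibition of growth. At the TGI there is no net growth.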

What was measured:
Assay in all cases: DTP human tumour cell line panel, 48 h
[1] = system: PC-3 prostate
[2] = system: SN12C renal
[3] = system: SR leukemia
[4] = system: U251 CNS
[5] = system: HL-60(TB) leukemia
[6] = system: DU-145 prostate
[7] = system: HCC-2998 colon
[8] = system: A549 NSCLC
[9] = system: UACC-257 melanoma
[10] = system: SK-OV-3 ovarian
[11] = system: NCI-H460 lung
[12] = system: SNB-75 CNS
[13] = system: SF-268 CNS
[14] = system: TK-10 renal
[15] = system: MDA-N
[16] = system: MDA-MB-231 breast
[17] = system: OVCAR-5 ovarian
[18] = system: MALME-3M melanoma
[19] = system: NCI-H322M lung
[20] = system: ACHN renal
[21] = system: SK-MEL-5 melanoma
[22] = system: BT-549 breast
[23] = system: HCT-116 colon
[24] = system: NCI-H522 lung
[25] = system: SF-295 CNS
[26] = system: NCI-H23 lung
[27] = system: MDA-MB-435
[28] = system: T-47D breast
[29] = system: EKVX NSCLC
[30] = system: M14 melanoma
[31] = system: HOP-62 NSCLC
[32] = system: MOLT-4 leukemia
[33] = system: UACC-62 melanoma
[34] = system: K-562 leukemia
[35] = system: HT29 colon
[36] = system: HS 578T breast
[37] = system: OVCAR-4 ovarian
[38] = system: OVCAR-8 ovarian
[39] = system: CCRF-CEM leukemia
[40] = system: KM12 colon
[41] = system: SF-539 CNS
[42] = system: SK-MEL-28 melanoma
[43] = system: CAKI-1 renal
[44] = system: OVCAR-3 ovarian
[45] = system: RXF 393 renal
[46] = system: NCI/ADR-RES ovarian
[47] = system: UO-31 renal
[48] = system: 786-0 renal
[49] = system: SK-MEL-2 melanoma
[50] = system: NCI-H226 lung
[51] = system: IGROV1 ovarian
[52] = system: SW-620 colon
[53] = system: SNB-19 CNS
[54] = system: MCF7 breast
[55] = system: LOX IMVI melanoma
[56] = system: HCT-15 colon
[57] = system: COLO 205 colon

With CC(C)(C)CN1[C@@H]2CCCC[C@H]2N(CC(C)(C)C)P1(C)=O the GI50 [1] was 21.2 µM, the TGI [1] was 54.6 µM and the GI50 [2] was 32.9 µM. For the same molecule, the TGI [2] was > 100 µM, the GI50 [3] was 29.6 µM and the TGI [3] was 64.4 µM. The GI50 [4] was 33.3 µM, the TGI [4] was > 100 µM and the GI50 [5] was 20.5 µM. For the same molecule, the TGI [5] was 45.5 µM, the GI50 [6] was 32.2 µM and the TGI [6] was > 100 µM. The GI50 [7] was 20 µM, the TGI [7] was 47.1 µM and the GI50 [8] was 32.1 µM. For the same molecule, the TGI [8] was > 100 µM, the GI50 [9] was 35.6 µM and the TGI [9] was > 100 µM. The GI50 [10] was 33.5 µM, the TGI [10] was > 100 µM and the GI50 [11] was 33.6 µM. The TGI [11] was > 100 µM, the GI50 [12] was 13.7 µM and the TGI [12] was 43 µM. The GI50 [13] was 32.2 µM, the TGI [13] was > 100 µM and the GI50 [14] was 24.3 µM. For the same molecule, the TGI [14] was 80.1 µM, the GI50 [15] was 19.6 µM and the TGI [15] was 47 µM. For the same molecule, the GI50 [16] was 25.5 µM, the TGI [16] was 86.8 µM and the GI50 [17] was 32.6 µM. The TGI [17] was > 100 µM, the GI50 [18] was 26.6 µM and the TGI [18] was 97.1 µM. For the same molecule, the GI50 [19] was 50.2 µM, the TGI [19] was > 100 µM and the GI50 [20] was 32.2 µM. The TGI [20] was > 100 µM, the GI50 [21] was 22.2 µM and the TGI [21] was 52.8 µM. The GI50 [22] was 32.7 µM, the TGI [22] was > 100 µM and the GI50 [23] was 25.7 µM. For the same molecule, the TGI [23] was > 100 µM, the GI50 [24] was 16.8 µM and the TGI [24] was 39.3 µM. The GI50 [25] was 29 µM, the TGI [25] was > 100 µM and the GI50 [26] was 29.2 µM. For the same molecule, the TGI [26] was > 100 µM, the GI50 [27] was 20.1 µM and the TGI [27] was 50.3 µM. For the same molecule, the GI50 [28] was 15.4 µM, the TGI [28] was 59.4 µM and the GI50 [29] was 29.3 µM. The TGI [29] was > 100 µM, the GI50 [30] was 29.2 µM and the TGI [30] was > 100 µM. For the same molecule, the GI50 [31] was 38.5 µM, the TGI [31] was > 100 µM and the GI50 [32] was 33.5 µM. For the same molecule, the TGI [32] was 78.6 µM, the GI50 [33] was 26.2 µM and the TGI [33] was > 100 µM. The GI50 [34] was 43.7 µM, the TGI [34] was 91.8 µM and the GI50 [35] was 25.1 µM. The TGI [35] was > 100 µM, the GI50 [36] was 22.4 µM and the TGI [36] was 58.8 µM. The GI50 [37] was 29.9 µM, the TGI [37] was > 100 µM and the GI50 [38] was 33.7 µM. For the same molecule, the TGI [38] was > 100 µM, the GI50 [39] was 36.4 µM and the TGI [39] was > 100 µM. For the same molecule, the GI50 [40] was 44.1 µM, the TGI [40] was > 100 µM and the GI50 [41] was 25.5 µM. For the same molecule, the TGI [41] was 64.5 µM, the GI50 [42] was > 100 µM and the TGI [42] was > 100 µM. For the same molecule, the GI50 [43] was 50.9 µM, the TGI [43] was > 100 µM and the GI50 [44] was 22.3 µM. The TGI [44] was 66.5 µM, the GI50 [45] was 14.2 µM and the TGI [45] was 46.2 µM. For the same molecule, the GI50 [46] was 32.6 µM, the TGI [46] was > 100 µM and the GI50 [47] was 24.4 µM. For the same molecule, the TGI [47] was > 100 µM, the GI50 [48] was 38.1 µM and the TGI [48] was > 100 µM. The GI50 [49] was 19 µM, the TGI [49] was 43.6 µM and the GI50 [50] was 25.2 µM. It also gave a TGI [50] of 67.9 µM, a GI50 [51] of 17.2 µM and a TGI [51] of 65.3 µM. For the same molecule, the GI50 [52] was 30.4 µM, the TGI [52] was > 100 µM and the GI50 [53] was 49.3 µM. For the same molecule, the TGI [53] was > 100 µM, the GI50 [54] was 31.6 µM and the TGI [54] was > 100 µM. The GI50 [55] was 48.1 µM, the TGI [55] was > 100 µM and the GI50 [56] was 26.3 µM. The TGI [56] was > 100 µM, the GI50 [57] was 17.4 µM and the TGI [57] was 32 µM.
